Laboratory results published in patent US10946012B2, “Methods for inducing tumor regression, inhibiting tumor growth, and inducing apoptosis in breast tumors with geranylgeranyltransferase I inhibitors” (H. Lee Moffitt Cancer Center and Research Institute, Inc., priority 2009, dated 2021).

Biological target: GGTase I (Homo sapiens, UniProt P49354+P53609)
Experiment: In vitro GGTase I activity assay ([3H]GGPP transfer to H-Ras-CVLL)
Details: for IC50: read-out: IC50, inhibition of GGTase I activity, H-Ras-CVLL, [3H]GGPP
Procedure: A brief discussion of exemplary materials and methods follows. In vitro FTase and GGTase I activity assays were performed. GGTase I and FTase activities from 60,000×g supernatants of human Burkitt's lymphoma (Daudi) cells (American Type Culture Collection (ATCC), Rockville, Md.) were assayed as described previously.

IC50 | selectivity towards inhibition of GGTase I versus FTase | Structure (SMILES)
7.1 nM | – | Cc1[nH]cnc1CN1CCN(C(=O)N[C@@H](CC(C)C)C(=O)O)[C@@H](Cc2ccc(F)cc2)C1=O
14 nM | 340 fold | Cc1[nH]cnc1CN1CCN(C(=O)N[C@@H](CC(C)C)C(=O)O)[C@@H](Cc2cccc3ccccc23)C1=O
